Experimental data: ChEMBL document CHEMBL1208697 (Bioorg Med Chem Lett, 2010)

Assay: Selectivity index, ratio of IC50 for sheep COX1 to IC50 for human COX2

Ratio IC50: 0.95
SMILES: NS(=O)(=O)c1ccc(-n2nc(C(F)(F)F)cc2-c2ccc(/[N+]([O-])=N\O)cc2)cc1
